{
  "source": "patent US11590232B2",
  "about": "“Bioconjugates of neuropeptides derivatives” (CENTRE NATIONAL DE LA RECHERCHE SCIENTIFIQUE, priority 2018, dated 2023)",
  "key": {"[1]": {"settings": "mouse serum, 37° C."}, "[2]": {"test_system": "central or peripheral opioid receptors", "experiment": "Opioid receptor blockade with naloxone or naloxone methiodide before agonist, Hargreaves test", "format": "in vivo, Sprague-Dawley rats", "settings": "10 min after morphine 1 mg/kg; NaI 0.5 mg/kg s.c. 15 min before"}},
  "data": [
    {"smiles": "CC(C)=CCC/C(C)=C/CC/C(C)=C/CC/C=C(\\C)CC/C=C(\\C)CCC(=O)NC(Cc1ccc(O)cc1)C(=O)NCC(=O)NCC(=O)NC(Cc1ccccc1)C(=O)NC(CC(C)C)C(=O)O", "note": "(stereo not drawn) [LENK-SQ-Am, Leu-enkephalin-squalene Bioconjugate with Amide Spacer]", "values": [
      {"measurement": "release of free LENK peptide", "setting": "[1]", "value": "no peptide was released"}
    ]},
    {"smiles": "CN1CC[C@]23c4c5ccc(O)c4O[C@H]2[C@@H](O)C=C[C@H]3[C@H]1C5", "note": "[morphine]", "values": [
      {"measurement": "PWL after NaI pre-administration", "setting": "[2]", "value": "3.20 ± 0.59", "unit": "s"}
    ]},
    {"smiles": "CC(C)=CCC/C(C)=C/CC/C(C)=C/CC/C=C(\\C)CC/C=C(\\C)CCCOC(=O)COCC(=O)NC(Cc1ccc(O)cc1)C(=O)NCC(=O)NCC(=O)NC(Cc1ccccc1)C(=O)NC(CC(C)C)C(=O)O", "note": "(stereo not drawn) [LENK-SQ-Dig, Leu-enkephalin-squalene Bioconjugate with diglycolic Spacer]", "values": [
      {"measurement": "time of maximum release of the peptide still attached to its linker", "setting": "[1]", "value": 45, "unit": "min"}
    ]}
  ]
}
